In patent publication US12478617B2, “Lipidated peptide inhibitors of interleukin-23 receptor” (JANSSEN BIOTECH, INC., priority 2021, dated 2025):

Molecular target: T1, IL-23R (Homo sapiens, UniProt Q5VWK5)
T1 construct: HEK293 cells containing IL-23R, IL-12RP31 and a firefly luciferase reporter gene driven by a STAT-inducible promoter (Promega); host or cells: HEK293
T1 sequence (Q5VWK5 24-629): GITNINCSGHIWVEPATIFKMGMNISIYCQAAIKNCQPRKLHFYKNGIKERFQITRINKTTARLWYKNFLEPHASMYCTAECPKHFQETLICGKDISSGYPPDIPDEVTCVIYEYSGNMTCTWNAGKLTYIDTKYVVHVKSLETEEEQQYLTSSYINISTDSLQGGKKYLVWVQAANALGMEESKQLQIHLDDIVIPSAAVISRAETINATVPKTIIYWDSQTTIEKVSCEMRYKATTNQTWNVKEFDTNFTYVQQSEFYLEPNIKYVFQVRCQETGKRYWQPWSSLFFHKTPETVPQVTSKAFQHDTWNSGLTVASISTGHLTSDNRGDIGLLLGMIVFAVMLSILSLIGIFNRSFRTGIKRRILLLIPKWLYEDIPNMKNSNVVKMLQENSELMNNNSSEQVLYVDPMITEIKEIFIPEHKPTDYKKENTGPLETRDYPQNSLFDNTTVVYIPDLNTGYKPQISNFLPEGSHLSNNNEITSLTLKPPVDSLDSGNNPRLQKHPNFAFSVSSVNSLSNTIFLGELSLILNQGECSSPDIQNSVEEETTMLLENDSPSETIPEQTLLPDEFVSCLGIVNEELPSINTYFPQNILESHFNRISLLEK
Test: IL23R Reporter Assay
Type: cell-based
Details: HEK293 cells containing IL-23R, IL-12Rβ1 and STAT-inducible firefly luciferase reporter; 10 ng/mL IL-23 (EC90); 5 h at 37° C.; read-out: IC50
Text: IL-23 binding to IL-23 receptors results in the activation of the Signal Transducer and Activator of Transcription 3 (STAT3) by phosphorylation and downstream signaling events. Accordingly. the ability of the inhibitors described herein to block IL-23 action can be assessed by monitoring the status of STAT3 activation in response to IL-23. This may be accomplished in reporter cell assays or in intact cells such as peripheral blood mononuclear cells (PBMCs).
Compounds were serially diluted in 100% (v/v) DMSO) and plated using an Echo acoustic dispenser (Labcyte) into 1536-well non-treated black assay plates (Corning #9146). 3 µL of HEK293 cells containing IL-23R, IL-12RP31 and a firefly luciferase reporter gene driven by a STAT-inducible promoter (Promega) were added to the plates (4000 cells/well), followed by 3 μL of 10 ng/mL IL-23 (equivalent to EC90 concentration). After 5 h at 37° C., 5% CO2, 95% relative humidity, cells were placed at 20° C. and treated with BioGlo reagent (Promega) according to the Manufacturer's instructions. Luminescence was measured on a Pherastar FSX (BMG LabTech). The data, provided in Tables 5a and 5b, were normalized to IL-23 treatment (0% inhibition) and 30 μM of control inhibitor (100% inhibition), and IC50 values were determined using a 4-parameter Hill equation.

IC50 [pM]	Compound
120	CC(=O)NCCCC[C@@H]1NC(=O)[C@H](Cc2c[nH]c3c(C)cccc23)NC(=O)[C@H]([C@@H](C)O)NC(=O)[C@H](CC(N)=O)NC(=O)[C@@H](NC(=O)[C@@H](CCCNC(=N)N)NC(C)=O)C(C)(C)SSC(C)(C)[C@@H](C(=O)N[C@@H](Cc2ccc(OCCN)cc2)C(=O)N[C@@H](Cc2ccc3ccccc3c2)C(=O)NC2(C(=O)N[C@@H](CCC(=O)O)C(=O)N[C@@H](CC(N)=O)C(=O)N[C@@H](Cc3cccnc3)C(=O)N[C@@H](CCCCNC(=O)COCCOCCNC(=O)COCCOCCNC(=O)CC[C@H](NC(=O)CCCCCCCCCCCCCCCCC(=O)O)C(=O)O)C(N)=O)CCOCC2)NC1=O [Example 18, MeCO-r-Pen*-N-T-7MeW-K(Ac)-Pen*-AEF-2Nal-THP-E-N-3Pya-K(PEG2PEG2gEC18OH)-CONH2]
120	CC(=O)NCCCC[C@@H]1NC(=O)[C@H](Cc2c[nH]c3c(C)cccc23)NC(=O)[C@H]([C@@H](C)O)NC(=O)[C@H](CC(N)=O)NC(=O)[C@@H](NC(=O)[C@@H](CCCNC(=N)N)NC(C)=O)C(C)(C)SSC(C)(C)[C@@H](C(=O)N[C@@H](Cc2ccc(OCCN)cc2)C(=O)N[C@@H](Cc2ccc3ccccc3c2)C(=O)NC2(C(=O)N[C@@H](CCC(=O)O)C(=O)N[C@@H](CC(N)=O)C(=O)N[C@@H](Cc3cccnc3)C(=O)N[C@@H](CCCCNC(=O)COCCOCCNC(=O)COCCOCCNC(=O)CC[C@H](NC(=O)CCCCCCCCCCCCCCC(=O)O)C(=O)O)C(N)=O)CCOCC2)NC1=O [Example 23, MeCO-r-Pen*-N-T-7MeW-K(Ac)-Pen*-AEF-2Nal-THP-E-N-3Pya-K(PEG2PEG2gEC16OH)-CONH2]
21	CC(=O)NCCCC[C@@H]1NC(=O)[C@H](Cc2c[nH]c3c(C)cccc23)NC(=O)[C@H]([C@@H](C)O)NC(=O)[C@H](CC(N)=O)NC(=O)[C@@H](NC(=O)[C@@H](CCCNC(=N)N)NC(C)=O)C(C)(C)SSC(C)(C)[C@@H](C(=O)N[C@@H](Cc2ccc(OCCN)cc2)C(=O)N[C@@H](Cc2ccc3ccccc3c2)C(=O)NC2(C(=O)N[C@@H](CCCCNC(=O)COCCOCCNC(=O)COCCOCCNC(=O)CC[C@H](NC(=O)CCCCCCCCCCCCCCC(=O)O)C(=O)O)C(=O)N[C@@H](CC(N)=O)C(=O)N[C@@H](Cc3cccnc3)C(=O)N(C)CC(N)=O)CCOCC2)NC1=O [Example 28, MeCO-r-Pen*-N-T-7MeW-K(Ac)-Pen*-AEF-2Nal-THP-K(PEG2PEG2gEC16OH)-N-3Pya-Sar-CONH2]
170	CC(=O)NCCCC[C@@H]1NC(=O)[C@H](Cc2c[nH]c3c(C)cccc23)NC(=O)[C@H]([C@@H](C)O)NC(=O)[C@H](CC(N)=O)NC(=O)[C@@H](NC(C)=O)C(C)(C)SSC(C)(C)[C@@H](C(=O)N[C@@H](Cc2ccc(OCCN)cc2)C(=O)N[C@@H](Cc2ccc3ccccc3c2)C(=O)NC2(C(=O)N[C@@H](CCCCNC(=O)CC[C@H](NC(=O)CCCCCCCCCCCCCCCCC(=O)O)C(=O)O)C(=O)N[C@@H](CC(N)=O)C(=O)N[C@@H](Cc3cccnc3)C(=O)N(C)CC(N)=O)CCOCC2)NC1=O [Example 30, MeCO-Pen*-N-T-7MeW-K(Ac)-Pen*-AEF-2Nal-THP-K(gEC18OH)-N-3Pya-Sar-CONH2]
46	CC(=O)NCCCC[C@@H]1NC(=O)[C@H](Cc2c[nH]c3c(C)cccc23)NC(=O)[C@H]([C@@H](C)O)NC(=O)[C@H](CC(N)=O)NC(=O)[C@@H](NC(C)=O)C(C)(C)SSC(C)(C)[C@@H](C(=O)N[C@@H](Cc2ccc(OCCN)cc2)C(=O)N[C@@H](Cc2ccc3ccccc3c2)C(=O)NC2(C(=O)N[C@@H](CCCCNC(=O)CCOCCOCCOCCOCCOCCOCCNC(=O)CC[C@H](NC(=O)CCCCCCCCCCCCCCCCC(=O)O)C(=O)O)C(=O)N[C@@H](CC(N)=O)C(=O)N[C@@H](Cc3cccnc3)C(=O)N(C)CC(N)=O)CCOCC2)NC1=O [Example 33, MeCO-Pen*-N-T-7MeW-K(Ac)-Pen*-AEF-2Nal-THP-K(PEG6gEC18OH)-N-3Pya-Sar-CONH2]
21	CC(=O)NCCCC[C@@H]1NC(=O)[C@H](Cc2c[nH]c3c(C)cccc23)NC(=O)[C@H]([C@@H](C)O)NC(=O)[C@H](CC(N)=O)NC(=O)[C@@H](NC(C)=O)C(C)(C)SSC(C)(C)[C@@H](C(=O)N[C@@H](Cc2ccc(OCCN)cc2)C(=O)N[C@@H](Cc2ccc3ccccc3c2)C(=O)NC2(C(=O)N[C@@H](CCCCNC(=O)COCCOCCNC(=O)CCOCCOCCOCCOCCOCCOCCNC(=O)CC[C@H](NC(=O)CCCCCCCCCCCCCCC(=O)O)C(=O)O)C(=O)N[C@@H](CC(N)=O)C(=O)N[C@@H](Cc3cccnc3)C(=O)N(C)CC(N)=O)CCOCC2)NC1=O [Example 38, MeCO-Pen*-N-T-7MeW-K(Ac)-Pen*-AEF-2Nal-THP-K(PEG2PEG6gEC16OH)-N-3Pya-Sar-CONH2]
23	CC(=O)NCCCC[C@@H]1NC(=O)[C@H](Cc2c[nH]c3c(C)cccc23)NC(=O)[C@H]([C@@H](C)O)NC(=O)[C@H](CC(N)=O)NC(=O)[C@@H](NC(C)=O)C(C)(C)SSC(C)(C)[C@@H](C(=O)N[C@@H](Cc2ccc(OCCN)cc2)C(=O)N[C@@H](Cc2ccc3ccccc3c2)C(=O)NC2(C(=O)N[C@@H](CCCCNC(=O)COCCOCCNC(=O)COCCOCCNC(=O)CCCCCCCCCCCCCCC(=O)O)C(=O)N[C@@H](CC(N)=O)C(=O)N[C@@H](Cc3cccnc3)C(=O)N(C)CC(N)=O)CCOCC2)NC1=O [Example 40, MeCO-Pen*-N-T-7MeW-K(Ac)-Pen*-AEF-2Nal-THP-K(PEG2PEG2C16OH)-N-3Pya-Sar-CONH2]
180	CC(=O)NCCCC[C@@H]1NC(=O)[C@H](Cc2c[nH]c3c(C)cccc23)NC(=O)[C@H]([C@@H](C)O)NC(=O)[C@H](CCCCNC(=O)CC[C@H](NC(=O)CCCCCCCCCCCCCCCCC(=O)O)C(=O)O)NC(=O)[C@@H](NC(=O)[C@@H](CCCNC(=N)N)NC(C)=O)C(C)(C)SSC(C)(C)[C@@H](C(=O)N[C@@H](Cc2ccc(OCCN)cc2)C(=O)N[C@@H](Cc2ccc3ccccc3c2)C(=O)NC2(C(=O)N[C@@H](CCCCNC(C)=O)C(=O)N[C@@H](CC(N)=O)C(=O)N[C@@H](Cc3cccnc3)C(=O)N(C)CC(N)=O)CCOCC2)NC1=O [Example 51, MeCO-r-Pen*-K(gEC18OH)-T-7MeW-K(Ac)-Pen*-AEF-2Nal-THP-K(Ac)-N-3Pya-Sar-CONH2]
170	CC(=O)NCCCC[C@@H]1NC(=O)[C@H](Cc2c[nH]c3c(C)cccc23)NC(=O)[C@H]([C@@H](C)O)NC(=O)[C@H](CC(N)=O)NC(=O)[C@@H](NC(=O)[C@@H](CCCNC(=N)N)NC(C)=O)C(C)(C)SSC(C)(C)[C@@H](C(=O)N[C@@H](Cc2ccc(OCCN)cc2)C(=O)N[C@@H](Cc2ccc3ccccc3c2)C(=O)NC2(C(=O)N[C@@H](CCCCNC(=O)COCCOCCNC(=O)COCCOCCNC(=O)[C@@H]3CCCN3C(=O)CCCCCCCCCCCCCCCCC(=O)O)C(=O)N[C@@H](CC(N)=O)C(=O)N[C@@H](Cc3cccnc3)C(=O)N(C)CC(N)=O)CCOCC2)NC1=O [Example 56, MeCO-r-Pen*-N-T-7MeW-K(Ac)-Pen*-AEF-2Nal-THP-K(PEG2PEG2PC18OH)-N-3Pya-Sar-CONH2]
44	CC(=O)NCCCC[C@@H]1NC(=O)[C@H](Cc2c[nH]c3c(C)cccc23)NC(=O)[C@H]([C@@H](C)O)NC(=O)[C@H](CC(N)=O)NC(=O)[C@@H](NC(=O)[C@@H](CCCCNC(=O)COCCOCCNC(=O)CCOCCOCCOCCOCCOCCOCCNC(=O)CC[C@H](NC(=O)CCCCCCCCCCCCCCCCC(=O)O)C(=O)O)NC(C)=O)C(C)(C)SSC(C)(C)[C@@H](C(=O)N[C@@H](Cc2ccc(OCCN)cc2)C(=O)N[C@@H](Cc2ccc3ccccc3c2)C(=O)NC2(C(=O)N[C@@H](CCCCNC(C)=O)C(=O)N[C@@H](CC(N)=O)C(=O)N[C@@H](Cc3cccnc3)C(=O)N(C)CC(N)=O)CCOCC2)NC1=O [Example 61, MeCO-k(PEG2PEG6 gE C18OH)-Pen*-N-T-7MeW-K(Ac)-Pen*-AEF-2Nal-THP-K(Ac)-N-3Pya-Sar-CONH2]
55	CC(=O)NCCCC[C@@H]1NC(=O)[C@H](Cc2c[nH]c3c(C)cccc23)NC(=O)[C@H]([C@@H](C)O)NC(=O)[C@H](CCCCNC(=O)COCCOCCNC(=O)CCOCCOCCOCCOCCOCCOCCNC(=O)CC[C@H](NC(=O)CCCCCCCCCCCCCCCCC(=O)O)C(=O)O)NC(=O)[C@@H](NC(=O)[C@@H](CCCNC(=N)N)NC(C)=O)C(C)(C)SSC(C)(C)[C@@H](C(=O)N[C@@H](Cc2ccc(OCCN)cc2)C(=O)N[C@@H](Cc2ccc3ccccc3c2)C(=O)NC2(C(=O)N[C@@H](CCCCNC(C)=O)C(=O)N[C@@H](CC(N)=O)C(=O)N[C@@H](Cc3cccnc3)C(=O)N(C)CC(N)=O)CCOCC2)NC1=O [Example 64, MeCO-r-Pen*-K(PEG2PEG6 gE C18OH)-T-7MeW-K(Ac)-Pen*-AEF-2Nal-THP-K(Ac)-N-3Pya-Sar-CONH2]
